In US20150368333A1:
Where two headings read alike, the source gives them in different places.

Assays:
[1] = biological target: TNF alpha (species not given) (UniProt P01375); assay: cell-based or functional assay
[2] = biological target: TNF alpha (species not given) (UniProt P01375); assay: cell-based or functional assay; remark: listed apart in the source

Substance: BPC1494 (antibody)
- IC50, L929 neutralisation assay (cell viability) [1]: 1.2 µg/mL
- IC50, TNFα-induced IL-6 release assay (whole blood) [1]: 0.62 nM
- IC50, TNFα-induced IL-6 release assay (whole blood) [2]: 0.62 nM

Substance: BPC1496 (antibody)
- IC50, L929 neutralisation assay (cell viability) [1]: 1.18 µg/mL
- IC50, TNFα-induced IL-6 release assay (whole blood) [1]: 0.64 nM
